Values of other authors, collected in US12421221B2 (ONCOBIX CO., LTD., priority 2019, dated 2025).

Test system: ALK positive NSCLC
Settings: clinical study, cited from earlier work

C[C@@H](Oc1cc(-c2cnn(C3CCNCC3)c2)cnc1N)c1c(Cl)ccc(F)c1Cl [Crizotinib, crizotinib]
progress-free survival (lung cancer patients (3 months of chemotherapeutic group)): 7.7 months | tumor response rate (lung cancer patients): about 65%
